The target of assay [1] is Thymidylate synthase (Homo sapiens) (UniProt P04818).
Assay [2] has the same target. The source holds these as a separate data set.
Assay [3] concerns the target Thymidylate synthase (Escherichia coli) (UniProt C3SWJ7).
Assay [4] has the same target. This is another data set of the same source.
For assay [5] the target is unchanged. This is another data set of the same source.
The target is the same in assay [6]. This is another data set of the same source.
The target in assay [7] is Thymidylate synthase (Homo sapiens) (UniProt P04818). The source holds these as a separate data set.
Assay [8] has the same target. The source holds these as a separate data set.

By UniProt entry, the sequences of proteins in these tests, tags left out. Where a name states a change or a piece, a line headed by the entry shows the natural chain unless it says otherwise.
UniProt P04818: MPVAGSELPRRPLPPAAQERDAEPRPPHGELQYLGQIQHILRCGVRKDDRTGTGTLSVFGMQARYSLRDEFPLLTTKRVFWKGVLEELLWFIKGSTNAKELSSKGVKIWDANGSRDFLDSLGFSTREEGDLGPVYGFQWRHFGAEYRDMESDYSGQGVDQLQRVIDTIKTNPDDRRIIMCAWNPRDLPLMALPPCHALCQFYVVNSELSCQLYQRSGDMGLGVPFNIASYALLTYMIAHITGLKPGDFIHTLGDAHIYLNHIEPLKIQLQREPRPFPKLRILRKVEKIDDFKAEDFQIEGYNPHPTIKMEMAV

A value given as a limit tells only on which side of the number the result lay.

As to `CN(Cc1ccc(S(=O)(=O)N2CCOCC2)cc1)c1ccc2c3c(ccc(Cl)c13)C(=O)N2`, the Kii in assay [1] was found to be 0.075 µM; in assay [3], 3.5 µM. The Kis in assay [2] was found to be 0.12 µM; in assay [4] it was 3.1 µM.

As to `CC(=O)c1cccc2c(N(C)Cc3ccc(S(=O)(=O)c4ccc(N)cc4)cc3)ccc(N)c12`, the results for the Kii in assay [1] and in assay [3] were 0.079 µM and 7.4 µM, respectively. The results for the Kis in assay [2] and in assay [4] were 0.14 µM and 4.5 µM, respectively.

`CCCN(Cc1ccc(S(=O)(=O)N2CCNCC2)cc1)c1ccc2c3c(cccc13)C(=O)N2`: the Kii is > 30 µM in assay [5] and 11 µM in assay [7]. The values for the Kis in assay [6] and in assay [8] were > 30 µM and 13 µM, respectively.

Regarding `Cc1ccc2c3c(ccc(N(C)Cc4ccc(S(=O)(=O)c5ccc(N)cc5)cc4)c13)NC2=O`, the Kii in assay [1] worked out at 0.039 µM; in assay [3], 1.8 µM. Also, the Kis in assay [2] worked out at 0.046 µM; in assay [4] it was 1.3 µM.

Take `COc1ccc(S(=O)(=O)c2ccc(CN(C)c3ccc4c5c(ccc(C)c35)C(=O)N4)cc2)cc1`: the Kii in assay [1] is 0.094 µM; in assay [3], 5.6 µM. Moreover, the Kis in assay [2] was determined as 0.064 µM; in assay [4], 5 µM.

`CNC1=Nc2ccc(N(C)Cc3ccc(S(=O)(=O)c4ccccc4)cc3)c3cccc1c23`: the Kii came out at 0.054 µM in assay [1] and 4.7 µM in assay [3]. The results for the Kis in assay [2] and in assay [4] were 0.053 µM and 2.1 µM, respectively.

In turn, `CN(Cc1ccc(S(=O)(=O)c2ccccc2)cc1)c1ccc2c3c(cccc13)C(NO)=N2` showed a Kii in assay [1] of 0.73 µM. The results for the Kis in assay [2] and in assay [4] were 0.36 µM and 6.1 µM, respectively.

`COc1ccc(S(=O)(=O)c2ccc(CN(C)c3ccc4c5c(cccc35)C(=O)N4)cc2)cc1`: the results for the Kii in assay [1] and in assay [3] were 0.18 µM and > 2 µM, respectively. Moreover, the Kis in assay [2] was 0.27 µM; in assay [4], > 2 µM.

On to `COc1ccc(S(=O)(=O)c2ccc(CN(C)c3ccc4c5c(ccc(C)c35)C(NO)=N4)cc2)cc1`, for which the Kii in assay [1] came to 0.1 µM; in assay [3], 0.87 µM. In addition, the Kis is 0.432 µM in assay [2] and 1.1 µM in assay [4].

With `Cc1ccc2c3c(ccc(N(C)Cc4ccc(S(=O)(=O)c5ccccc5)cc4)c13)NC2=O`, the figures for the Kii in assay [1] and in assay [3] were 0.07 µM and 3.4 µM, respectively. Also, the figures for the Kis in assay [2] and in assay [4] were 0.073 µM and 3 µM, respectively.

For the molecule `CN(Cc1ccc(S(=O)(=O)c2ccc(O)cc2)cc1)c1ccc2c3c(cccc13)C(N)=N2`, the Kii in assay [1] is 0.015 µM; in assay [3] it was 0.64 µM. Besides, the figures for the Kis in assay [2] and in assay [4] were 0.012 µM and 0.27 µM, respectively.

For the molecule `CSc1ccc2c3c(ccc(N(C)Cc4ccc(S(=O)(=O)N5CCOCC5)cc4)c13)N=C2N`, the results for the Kii in assay [1] and in assay [3] were 0.11 µM and 0.54 µM, respectively. The Kis in assay [2] turned out to be 0.11 µM; in assay [4] it was 0.23 µM.

In the case of `Cc1ccc2c3c(ccc(N(C)Cc4ccc(S(=O)(=O)c5ccccc5)cc4)c13)N=C2N`, the Kii turned out to be 0.044 µM in assay [1] and 0.55 µM in assay [3]. Moreover, the values for the Kis in assay [2] and in assay [4] were 0.035 µM and 0.21 µM, respectively.

With `CCN(Cc1ccc(S(=O)(=O)c2ccccc2)cc1)c1ccc2c3c(cccc13)C(N)=N2`, the values for the Kii in assay [1] and in assay [3] were 0.081 µM and 22 µM, respectively. Further, the Kis was 0.4 µM in assay [2] and 7.1 µM in assay [4].

With `COc1ccc(S(=O)(=O)c2ccc(CN(C)c3ccc4c5c(ccc(C)c35)C(N)=N4)cc2)cc1`, the Kii in assay [1] is 0.032 µM; in assay [3] it was 1.4 µM. Moreover, the Kis was determined as 0.048 µM in assay [2] and 1.3 µM in assay [4].

With `O=C1Nc2ccc(N(CCCO)Cc3ccc(S(=O)(=O)N4CCNCC4)cc3)c3cccc1c23`, the Kii in assay [1] is 8.8 µM; in assay [3], 92 µM. Besides, the Kis in assay [2] turned out to be 6.9 µM; in assay [4], 39 µM.

Take `Cc1ccc2c3c(ccc(N(C)Cc4ccc(S(=O)(=O)c5ccc([N+](=O)[O-])cc5)cc4)c13)N=C2N`: the results for the Kii in assay [1] and in assay [3] were 0.064 µM and 2 µM, respectively. Also, the Kis in assay [2] was found to be 0.09 µM; in assay [4], 1.1 µM.

Take `Cc1ccc2c3c(ccc(N(C)Cc4ccc(S(=O)(=O)N5CCOCC5)cc4)c13)N=C2N`: the Kii in assay [1] turned out to be 0.015 µM; in assay [3] it was 0.18 µM. Also, the values for the Kis in assay [2] and in assay [4] were 0.02 µM and 0.13 µM, respectively.

As to `Cc1ccc2c3c(ccc(NCc4ccc(S(=O)(=O)c5ccccc5)cc4)c13)NC2=O`, the Kii is 1.1 µM in assay [1] and > 1 µM in assay [3]. In addition, the results for the Kis in assay [2] and in assay [4] were 1 µM and > 1 µM, respectively.

For the molecule `Cc1ccc2c3c(ccc(N(C)Cc4ccc(S(=O)(=O)N5CCOCC5)cc4)c13)NC2=O`, the Kii in assay [1] was 0.039 µM; in assay [3], 1 µM. In addition, the Kis in assay [2] was 0.076 µM; in assay [4], 1.4 µM.

Take `CN(Cc1ccc(S(=O)(=O)c2ccc(O)cc2)cc1)c1ccc2c3c(cccc13)C(=O)N2`: the Kii in assay [1] amounted to 0.06 µM; in assay [3], 6 µM. In addition, the Kis stood at 0.2 µM in assay [2] and 2.9 µM in assay [4].

With `CC(C)N(Cc1ccc(S(=O)(=O)N2CCNCC2)cc1)c1ccc2c3c(cccc13)C(=O)N2`, the Kii in assay [1] came to 5.7 µM; in assay [3] it was 27 µM. For the same molecule, the Kis in assay [2] was 11 µM; in assay [4], 18 µM.

For the molecule `CCN(Cc1ccc(S(=O)(=O)c2ccccc2)cc1)c1ccc2c3c(cccc13)C(=O)N2`, the Kii in assay [1] was 1 µM; in assay [3] it was > 1 µM. Moreover, the values for the Kis in assay [2] and in assay [4] were 1.3 µM and > 1 µM, respectively.

As to `CSC1Nc2ccc(N(C)Cc3ccc(S(=O)(=O)c4ccc(O)cc4)cc3)c3cccc1c23` (stereo not drawn), the values for the Kii in assay [1] and in assay [3] were 2.9 µM and 16 µM, respectively. Moreover, the Kis came out at 3.8 µM in assay [2] and 22 µM in assay [4].

In the case of `CN(Cc1ccc(S(=O)(=O)N2CCOCC2)cc1)c1ccc2c3c(cccc13)C(=O)N2`, the Kii in assay [1] came out at 0.25 µM; in assay [3], 11 µM. Besides, the Kis stood at 0.3 µM in assay [2] and 6.6 µM in assay [4].

Take `COc1ccc(S(=O)(=O)c2ccc(CN(C)c3ccc4c5c(cccc35)C(N)=N4)cc2)cc1`: the Kii in assay [1] stood at 0.02 µM; in assay [3] it was 2.5 µM. Moreover, the results for the Kis in assay [2] and in assay [4] were 0.025 µM and 1.4 µM, respectively.

With `CN(Cc1ccc(S(=O)(=O)N2CCOCC2)cc1)c1ccc2c3c(ccc(Cl)c13)C(N)=N2`, the Kii amounted to 0.02 µM in assay [1] and 2.1 µM in assay [3]. Also, the Kis was determined as 0.029 µM in assay [2] and 1.6 µM in assay [4].

In the case of `CSCN(Cc1ccc(S(=O)(=O)c2ccccc2)cc1)c1ccc2c3c(cccc13)C(=O)N2`, the Kii in assay [1] was 2.8 µM; in assay [3], > 1 µM. The results for the Kis in assay [2] and in assay [4] were 5 µM and > 1 µM, respectively.

For the molecule `CN(Cc1ccc(S(=O)(=O)c2ccc([N+](=O)[O-])cc2)cc1)c1ccc2c3c(cccc13)C(=O)N2`, the Kii in assay [1] is 0.18 µM; in assay [3] it was > 10 µM. Also, the Kis is 0.11 µM in assay [2] and > 10 µM in assay [4].

Consider `CNC1=Nc2ccc(N(C)Cc3ccc(S(=O)(=O)c4ccc(OC)cc4)cc3)c3c(C)ccc1c23`, for which the Kii in assay [1] amounted to 0.029 µM; in assay [3], 1 µM. Besides, the Kis worked out at 0.039 µM in assay [2] and 0.51 µM in assay [4].

As to `O=C1Nc2ccc(NCc3ccc(S(=O)(=O)c4ccccc4)cc3)c3cccc1c23`, the Kii in assay [1] was 2.8 µM; in assay [3], > 3 µM. For the same molecule, the Kis was 2.6 µM in assay [2] and > 3 µM in assay [4].

In the case of `CNC1=Nc2ccc(N(C)Cc3ccc(S(=O)(=O)N4CCOCC4)cc3)c3cccc1c23`, the Kii worked out at 0.053 µM in assay [1] and 6.3 µM in assay [3]. Moreover, the Kis in assay [2] is 0.017 µM; in assay [4], 1.3 µM.

In the case of `Cc1ccc2c3c(ccc(N(C)Cc4ccc(S(=O)(=O)c5ccc([N+](=O)[O-])cc5)cc4)c13)NC2=O`, the Kii was found to be 0.12 µM in assay [1] and 2.6 µM in assay [3]. Besides, the Kis is 0.13 µM in assay [2] and 2.7 µM in assay [4].

As for `Cc1ccc2c3c(ccc(N(C)Cc4ccc(S(=O)(=O)c5ccc(N)cc5)cc4)c13)N=C2N`, the Kii is 0.03 µM in assay [1] and 0.53 µM in assay [3]. For the same molecule, the figures for the Kis in assay [2] and in assay [4] were 0.043 µM and 0.3 µM, respectively.

As to `O=C1Nc2ccc(N(CCO)Cc3ccc(S(=O)(=O)N4CCNCC4)cc3)c3cccc1c23`, the figures for the Kii in assay [1] and in assay [3] were 0.88 µM and 12 µM, respectively. The figures for the Kis in assay [2] and in assay [4] were 0.59 µM and 6.5 µM, respectively.

As to `CN(Cc1ccc(S(=O)(=O)c2ccccc2)cc1)c1ccc2c3c(cccc13)C(NN)=N2`, the Kii is 2.5 µM in assay [1] and > 10 µM in assay [3]. Besides, the Kis is 1.9 µM in assay [2] and > 10 µM in assay [4].

The values above are taken from ChEMBL document CHEMBL1125372, “Crystal-structure-based design and synthesis of benz[cd]indole-containing inhibitors of thymidylate synthase” (J Med Chem, 1992).
